Experimental data taken from ChEMBL document CHEMBL1137407, “Identification and optimization of anthranilic sulfonamides as novel, selective cholecystokinin-2 receptor antagonists” (J Med Chem, 2006).

Columns and labels:
[1] = test system: Caco-2; assay: Ratio of permeability from apical to basolateral over basolateral to apical side of Caco-2 cells; format: ADME, cell-based; conditions: human
[2] = Protein binding in human serum; format: ADME, organism-based; conditions: read-out: PPB
[3] = species: Homo sapiens; assay: Protein binding in human plasma; conditions: read-out: PPB

Ratio [1]: 0.8
fraction unbound [2]: < 0.005
fraction unbound [3]: < 0.005
SMILES: O=C(c1ccc(Cl)cc1NS(=O)(=O)c1cccc2nsnc12)N1CCCCC1
